Data on one substance can be found in patent publication US7176283B1, “Protease-activated receptor 3 and uses thereof” (The Regents of the University of California, priority 1996, dated 2007).

In the experiment the target is human protease-activated receptor 3 (human) (UniProt O00254). Kind of experiment: cell-based or functional assay.

“α-thrombin (from UniProt P00734 328-363; P00734 364-622) (enzyme)”: the EC50, phosphoinositide hydrolysis in Cos 7 cells amounted to 0.2 nM.
